The list shows a part of the results, in another mix than the full data. Calls of active or inactive are those of the source.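 The calls were made as follows: active = activation above the run cutoff, the mean activation of all test compounds plus 3 SD (cut at about 18% in these data); inactive = the rest.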

The chains behind the UniProt entries cited, without tags or fusion partners.
UniProt P08912, whole entry: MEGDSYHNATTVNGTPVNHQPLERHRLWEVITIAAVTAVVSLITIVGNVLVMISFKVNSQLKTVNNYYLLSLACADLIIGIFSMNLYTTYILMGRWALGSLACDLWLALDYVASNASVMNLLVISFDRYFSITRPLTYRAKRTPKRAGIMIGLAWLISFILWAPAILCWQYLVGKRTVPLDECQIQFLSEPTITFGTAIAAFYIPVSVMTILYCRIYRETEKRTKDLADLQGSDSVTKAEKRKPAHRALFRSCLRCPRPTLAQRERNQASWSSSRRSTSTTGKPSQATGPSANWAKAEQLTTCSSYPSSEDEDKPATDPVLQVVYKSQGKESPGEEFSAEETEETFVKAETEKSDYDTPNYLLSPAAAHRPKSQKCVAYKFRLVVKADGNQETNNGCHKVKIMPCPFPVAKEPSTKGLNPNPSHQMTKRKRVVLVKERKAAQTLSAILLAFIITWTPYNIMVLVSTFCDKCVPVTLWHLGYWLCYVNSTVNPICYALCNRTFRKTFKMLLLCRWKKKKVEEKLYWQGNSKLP

This assay has as its target Muscarinic acetylcholine receptor M5 (Homo sapiens) (UniProt P08912). The assay is described as follows: CHRM5 PAMs potentiating acetylcholine calcium signal – CHO-K1 cells, Fluo-8 calcium fluorescence, primary screen (AID 624038). The following applies: CHO-K1 hM5, Fluo-8 calcium, ACh EC20 PAM; at 3 µM; stronger effect = higher value; 0% = ACh EC20, 100% = ACh EC100.
With `CP(=O)(Nc1ccccn1)Oc1ccc(Cl)cc1` (stereo not drawn), the activation is inactive: 0.03%. As for `O=[N+]([O-])c1cc([N+](=O)[O-])c(O)c([N+](=O)[O-])c1.c1ccc(Oc2ccncc2)cc1`, the activation was inactive: 4.7%. As to `CCOC(=O)c1ccc(NP(C)(=O)Oc2ccc(OC)cc2)cc1` (stereo not drawn), the activation was inactive: -0.37%.

As for `CCOP(C)(=S)SCC(=O)NC(C)C(=O)O` (stereo not drawn), the activation is inactive: 1.74%.

Consider `Cc1cc(C)cc(OP(C)(=O)Nc2ccc(SC(F)(F)F)cc2)c1` (stereo not drawn), for which the activation is inactive: 4.18%.

With `CP(=O)(NC(=O)Nc1ccccc1)Oc1ccccc1` (stereo not drawn), the activation is inactive: -5.17%. For `CCc1ccc(OP(C)(=O)N2CCN(c3ccc([N+](=O)[O-])cc3)CC2)cc1` (stereo not drawn), the activation is inactive: -19.8%. The result for `CP(=O)(Oc1ccccc1)OC(c1ccccc1)C(F)(F)F` (stereo not drawn) reads inactive: -1.85%.

Take `CP(=O)(Nc1ccc(SC(F)(F)F)cc1)Oc1ccc(Cl)cc1` (stereo not drawn): the activation was inactive: -5.92%.

`Cc1ccc(Nc2c([N+](=O)[O-])cc([N+](=O)[O-])cc2[N+](=O)[O-])cc1`: the activation was inactive: -6.18%. On to `Cc1cccc(C)c1OP(C)(=O)Nc1ccc(SC(F)(F)F)cc1` (stereo not drawn), for which the activation was inactive: -1.27%.

As for `CP(=O)(Nc1ccccc1Br)Oc1ccccc1` (stereo not drawn), the activation is inactive: 8.84%. As to `COc1ccccc1OP(C)(=O)Nc1ccccc1` (stereo not drawn), the activation is inactive: 1.34%.

With `CP(=S)(Nn1cnnc1)Oc1ccccc1` (stereo not drawn), the activation was inactive: -1.14%. `CCCCOc1ccc(C(=O)NCC2(N3CCCCC3)CCCCC2)cc1OC`: the activation was inactive: -2.52%. As for `Cc1cc(C)cc(OP(C)(N)=O)c1` (stereo not drawn), the activation is inactive: 14.1%.

On to `COc1ccc(OP(C)(=O)Nc2cccc(F)c2)cc1` (stereo not drawn), for which the activation was inactive: -4.95%.

Turning to `COc1ccccc1OP(C)(=O)Nc1cc(Cl)ccc1C` (stereo not drawn), the activation was inactive: 4.11%. Consider `Cc1ccc(NP(C)(=O)Oc2ccccc2)c(C)c1` (stereo not drawn), for which the activation was inactive: 4.93%.

With `COc1ccccc1OP(C)(=O)Nc1ccc(C)cc1` (stereo not drawn), the activation is inactive: 2.78%. For the compound `CCOC(=O)c1ccc(NP(C)(=O)Oc2ccccc2)cc1` (stereo not drawn), the activation was inactive: 1.63%.

As to `O=[N+]([O-])c1ccc2c(c1)C=Nc1ccccc1O2`, the activation is inactive: -0.38%. In the case of `Cc1cccc(C)c1OP(C)(N)=O` (stereo not drawn), the activation is inactive: -1.88%. As to `CC(C)(C)c1ccc(OP(C)(=O)Nc2ccc(SC(F)(F)F)cc2)cc1` (stereo not drawn), the activation is inactive: -16.2%. As for `COc1cc(C(=O)NCC2(N3CCOCC3)CCCCC2)ccc1OCC(C)C`, the figure is inactive: -0.48%. As for `O=[N+]([O-])c1cc([N+](=O)[O-])c(Nc2cccnc2)c([N+](=O)[O-])c1`, the figure is inactive: -13.1%; as for `COc1ccccc1-c1ccccn1.O=[N+]([O-])c1cc([N+](=O)[O-])c(O)c([N+](=O)[O-])c1`, inactive: 10.4%; as for `CCN(CC)CCCOC(=O)C(O)(c1ccccc1)c1ccccc1`, inactive: -30.9%.

With `Cc1ccc(C)c(NP(C)(=O)Oc2ccccc2)c1` (stereo not drawn), the activation was inactive: 8.27%.

`Cc1cc(C)cc(OP(C)(=O)Nc2ccccn2)c1` (stereo not drawn): the activation is inactive: 4.33%. For the compound `CP(=O)(Nc1cccc(Br)c1)Oc1ccccc1` (stereo not drawn), the activation was inactive: 4.32%. For `CCOC(=O)c1ccc(NP(C)(=O)Oc2cc(C)cc(C)c2)cc1` (stereo not drawn), the activation was inactive: -1.35%. Consider `Cc1cc(C)cc(OP(C)(=O)Nc2ccc(C)cc2C)c1` (stereo not drawn), for which the activation was inactive: 3.12%.

Take `COc1ccccc1OP(C)(=O)Nc1cccc(Br)c1` (stereo not drawn): the activation was inactive: -0.79%. Regarding `COc1cc(C(=O)NCC2(N3CCOCC3)CCCCC2)cc(Cl)c1OC(C)C`, the activation is inactive: -8.43%. For the compound `CC1=NCCc2c1[nH]c1ccccc21.O=[N+]([O-])c1cc([N+](=O)[O-])c(O)c([N+](=O)[O-])c1`, the activation was inactive: 2.29%. As to `O=C(O)c1cccc(Nc2c([N+](=O)[O-])cc([N+](=O)[O-])cc2[N+](=O)[O-])c1`, the activation was inactive: 0.31%. The result for `COc1ccc(-c2ccccn2)cc1.O=[N+]([O-])c1cc([N+](=O)[O-])c(O)c([N+](=O)[O-])c1` reads inactive: 1.4%. `CCCOc1ccc(NP(C)(=O)Oc2ccc(Cl)cc2)cc1` (stereo not drawn): the activation is inactive: 9.87%.

On to `CP(=O)(Nc1ccc(SC(F)(F)F)cc1)Oc1ccccc1` (stereo not drawn), for which the activation was inactive: -7.71%. As for `CN1CCCCC1COC(=O)C1(O)c2ccccc2CCc2ccccc21` (stereo not drawn), the figure is inactive: -19%. Turning to `COc1ccccc1OP(C)(=O)Nc1c(C)cccc1C` (stereo not drawn), the activation was inactive: -0.42%. As for `CCOC(=O)C(CC)C1=NC(C)(C)Cc2ccccc21.O=[N+]([O-])c1cc([N+](=O)[O-])c(O)c([N+](=O)[O-])c1` (stereo not drawn), the figure is inactive: -0.38%; as for `CC1=C2N=C(C=C3N=C(C(C)=C4[N-][C@@](C)([C@@H]5N=C1[C@](C)(CCC(=O)NC[C@@H](C)OP(=O)([O-])O[C@H]1[C@@H](O)[C@@H](n6cnc7cc(C)c(C)cc76)O[C@@H]1CO)[C@H]5CC(N)=O)[C@@](C)(CC(N)=O)[C@@H]4CCC(N)=O)[C@@](C)(CC(N)=O)[C@@H]3CCC(N)=O)C(C)(C)[C@@H]2CCC(N)=O.[C-]#N.[Co+3]`, inactive: 0.8%; as for `CN(C)C1(CNC(=O)c2ccc(S(C)(=O)=O)cc2)CCCCC1`, inactive: 6.55%. For the compound `O=[N+]([O-])c1cc([N+](=O)[O-])c(Nc2nnnn2CCO)c([N+](=O)[O-])c1`, the activation was inactive: -5.35%. For the compound `Cc1nc2ccc3ccccc3c2s1.O=[N+]([O-])c1cc([N+](=O)[O-])c(O)c([N+](=O)[O-])c1`, the activation was inactive: 7.49%. Consider `O=[N+]([O-])c1cc([N+](=O)[O-])c(-c2cnn(-c3ccccc3)c2)c([N+](=O)[O-])c1`, for which the activation is inactive: -11.6%. As for `CN(Cc1cccnc1)C(=O)COc1ccc(Cl)c(Cl)c1.O=[N+]([O-])c1cc([N+](=O)[O-])c(O)c([N+](=O)[O-])c1`, the activation was inactive: 1.52%. `O=[N+]([O-])c1cc([N+](=O)[O-])c(-n2nnc3ccccc32)c([N+](=O)[O-])c1`: the activation was inactive: 3.87%.

For `Cc1ccccc1NP(C)(=O)Nc1ccccc1C`, the activation was inactive: 3.5%.

Consider `O=[N+]([O-])c1cc([N+](=O)[O-])c(C(F)(F)F)c([N+](=O)[O-])c1O`, for which the activation is inactive: -2.16%. `CP(=O)(Nc1ccc2c(c1)OCCO2)Oc1ccccc1` (stereo not drawn): the activation was inactive: -4.04%.

These data come from PubChem BioAssay AID624038 (The Scripps Research Institute Molecular Screening Center, 2012).
